Measured values taken from published antibiotic growth screens (doi:10.1038/s41589-023-01349-8).
The list shows a part of the results.

system: A. baumannii ATCC 17978; assay: relative growth (fraction of control); higher = less inhibition; details: 50 µM

| SMILES | relative growth |
| --- | --- |
| Cc1ccc(S(=O)(=O)N2C[C@H](O)COC[C@H]3O[C@@H](CC(=O)NCc4ccc(Cl)c(Cl)c4)CC[C@@H]32)cc1 | 1.04 |
| C[C@@H]1CN([C@@H](C)CO)S(=O)(=O)c2ccc(C#C[C@@H](C)O)cc2O[C@@H]1CN(C)C(=O)CN(C)C | 1.2 |
| CC(C)CCC[C@@H](C)[C@H]1CC[C@@]2(C)C3=C(CC[C@]12C)[C@@]1(C)CC[C@H](OC(=O)CCl)C(C)(C)[C@@H]1CC3 | 1.06 |
| Cc1ccccc1OC[C@@H](O)CO | 1.08 |
| Cn1cnc(S(=O)(=O)N2C[C@H](O)COC[C@@H]3O[C@H](CC(=O)N4CCN(c5ccccc5)CC4)CC[C@H]32)c1 | 0.813 |
| N[C@@H](Cn1ccnc1)c1ccccc1 | 1.04 |
| CN(C)CCNc1ccc(CN)cc1 | 1.13 |
| Cc1noc(C)c1NC(=O)N[C@@H]1C=C[C@H](CC(=O)N2CCN(C)CC2)O[C@@H]1CO | 1.07 |
| CCOCCOc1ccccc1C(N)=O | 1.19 |
| COc1ccc2cc1Oc1ccc(cc1)C[C@H]1c3cc(c(OC)cc3CCN1C)Oc1c(OC)c(OC)cc3c1[C@H](C2)N(C)CC3 | 0.755 |
| Cc1ccc(S(=O)(=O)N(C)C[C@@H]2Oc3c(NC(=O)Nc4cccc5ccccc45)cccc3C(=O)N([C@@H](C)CO)C[C@H]2C)cc1 | 0.914 |
| FC(F)(F)c1ccccc1-c1ncc(-c2ccccc2)o1 | 0.813 |
| NCC[C@H]1CC[C@H](NC(=O)C2CCCC2)[C@@H](CO)O1 | 1.07 |
| O=C(N[C@@H]1C=C[C@H](CC(=O)N2CCOCC2)O[C@H]1CO)c1ccccn1 | 1.07 |
| Cc1ccoc1C(=O)NCCN | 0.931 |
| O=S1(=O)CO[C@@H](c2ccccc2)CN1 | 1.08 |
| O=C(C[C@H]1C=C[C@@H](NC(=O)Nc2ccc3c(c2)OCO3)[C@H](CO)O1)NCCCN1CCOCC1 | 1.07 |
| Cc1ccccc1NC(=O)CC(C)C | 0.953 |
| C=CCOc1nc(NCC)nc(N(C)C)n1 | 0.904 |
| CS(=O)(=O)O.OC(CCN1CCCCC1)(c1ccccc1)c1ccccc1 | 0.859 |
| COCC(=O)Nc1ccc2c(c1)C(=O)N(C)[C@H]1CC[C@@H](CC(=O)NCc3ccc(OC)cc3)O[C@H]1CO2 | 0.981 |
| Oc1ccc2c(c1)OCC1(O)Cc3cc(O)c(O)cc3C21 (stereo not given) | 1.26 |

| SMILES | relative growth |
| --- | --- |
| CCCC#Cc1ccc2c(c1)O[C@H](CN(C)Cc1ccc3c(c1)OCO3)[C@@H](C)CN([C@@H](C)CO)S2(=O)=O | 1.21 |
| COc1cc(C(=O)NC2CCCNC2)cc(OC)c1OC (stereo not given) | 1.02 |
| COCC#Cc1ccc2c(c1)O[C@@H](CN(C)Cc1ccccc1F)[C@H](C)CN([C@H](C)CO)S2(=O)=O | 0.996 |
| CCCNC(=O)N(C)c1nncnc1C(=O)NC | 1.08 |
| COc1ccc([C@@H]([C@H](Cc2ccccc2)OC(C)=O)N2C[C@@H](CC(=O)N(C)C)[C@@H]3[C@H]([C@@H]2Cc2ccccc2)N(C)O[C@H]3c2ccccc2)cc1 | 1.16 |
| CO[C@@H]1CN(C)C(=O)c2ccc(NS(=O)(=O)c3cn(C)cn3)cc2OC[C@H](C)N(CCC(F)(F)F)C[C@@H]1C | 0.973 |
| Cc1ccc(OCc2ccc(Cl)cc2)c(C(C)(C)C)c1 | 0.89 |
| CO[C@H](CN(C)S(=O)(=O)c1cn(C)cn1)[C@H](C)CN(C(=O)Nc1ccc(C(F)(F)F)cc1)[C@H](C)CO | 0.968 |
| CC(=O)c1c(O)c(C)c(O)c2c1OC1=CC(=O)C(C(C)=O)C(=O)C12C (stereo not given) | 0.911 |
| COCCNC(=O)C[C@H]1CC[C@H](NS(=O)(=O)c2ccc(C)cc2)[C@H](CO)O1 | 1.05 |
| O=C(C[C@H]1CC[C@@H]2[C@H](COC[C@H](O)CN2C(=O)Nc2cccc(F)c2)O1)NCCCN1CCOCC1 | 0.899 |
| COc1ccccc1CNC(=O)C[C@@H]1CC[C@H]2[C@@H](COC[C@@H](O)CN2C(=O)Nc2ccc(Cl)cc2)O1 | 0.939 |
| O=C1[O][Bi]([OH])[O]c2ccccc21 | 0.956 |
| CC(=O)N(C)CP(=O)(O)CN1CCCC1=O | 0.959 |
| C[C@H](CO)N1C[C@H](C)[C@H](CN(C)CC2CC2)Oc2cc(C#Cc3ccc(F)cc3)ccc2S1(=O)=O | 0.805 |
| C[C@@H]1CN([C@H](C)CO)S(=O)(=O)c2ccc(C#Cc3ccccc3F)cc2O[C@@H]1CN(C)C(=O)Cc1cccnc1 | 0.884 |
| CCn1c2c(c3cc(C4CCCCC4)ccc31)CCCC2=O | 1 |
| COc1cccc(-c2ccc3c(c2)O[C@H](CN(C)C(=O)C2CCC2)[C@@H](C)CN([C@H](C)CO)S3(=O)=O)c1 | 0.663 |
| COc1ccc(S(=O)(=O)Nc2ccc3c(c2)[C@@H]2C[C@H](CC(=O)NCC4CC4)O[C@H](CO)[C@@H]2O3)cc1 | 1.05 |
| CC(C)CCCC(C)C1CCC2C3CC(=O)[C@H]4C[C@@H](O)CC[C@]4(C)C3CC[C@]12C (stereo partly drawn) [5alpha-CHOLESTAN-3beta-OL-6-ONE] | 1.01 |
| C=CCN1C(=O)[C@@]2(O[C@@H](CCn3cc([C@H](O)c4ccccc4)nn3)[C@H]([Si](C)(C)c3ccc(OC)cc3)[C@H]2C)c2ccccc21 | 1.22 |
| C/C=C1\[C@@H](O[C@H]2O[C@@H](CO)[C@@H](O)[C@@H](O)[C@@H]2O)OC=C(C(=O)OC)[C@H]1CC(=O)OC[C@H]1[C@H](C)[C@H](OC(=O)C[C@@H]2C(C(=O)OC)=CO[C@H](O[C@H]3O[C@@H](CO)[C@@H](O)[C@@H](O)[C@@H]3O)/C2=C\C)C[C@@H]1[C@H](CO)COC(=O)C[C@@H]1C(C(=O)OC)=CO[C@@H](O[C@H]2O[C@@H](CO)[C@@H](O)[C@@H](O)[C@@H]2O)/C1=C\C | 1.03 |

| SMILES | relative growth |
| --- | --- |
| Cc1cc(O)c2c(c1)Cc1cccc(O)c1C2=O | 0.898 |
| COC(=O)c1cc(-c2ccccc2)oc1CN | 0.889 |
| N[C@]12CC[C@](C(=O)O)(CC1)C2 | 1.02 |
| O=C(C1CC1)N1CCN(c2ncccn2)CC1 | 0.925 |
| COc1ccc(S(=O)(=O)N(C)C)cc1 | 0.874 |
| O=C1OC2(c3ccc(O)cc3Oc3cc(O)ccc32)c2ccccc21 | 1.01 |
| COc1ccc(S(=O)(=O)N2C[C@@H](O)COC[C@@H]3O[C@H](CC(=O)NCCCN4CCOCC4)CC[C@H]32)cc1 | 1.1 |
| O=C([O-])[C@H](O)[C@@H](O)[C@H](O)[C@H](O)CO.[Na+] | 1.15 |
| Cc1ccc(Nc2nnc(-c3ccccc3)c3ccccc23)cc1 | 1.02 |
| O=C(O)CCC(=O)Nc1ccc(S(=O)(=O)Nc2nccs2)cc1 | 0.885 |
| CCCC(=O)Nc1ccc2c(c1)C(=O)N(C)C[C@@H](OC)[C@@H](C)CN(Cc1ccc(-c3ccccn3)cc1)[C@@H](C)CO2 | 1.09 |
| C[C@@H]1CN([C@@H](C)CO)S(=O)(=O)c2ccc(C#CC3CC3)cc2O[C@H]1CN(C)C(=O)C1CCCCC1 | 0.782 |
| COc1cnc(NS(=O)(=O)c2ccc(N)cc2)nc1 | 1.02 |
| O=NN(CCCl)C(=O)NC1CCCCC1 | 1.28 |
| O=C(C[C@H]1CC[C@H]2[C@@H](COC[C@@H](O)CN2S(=O)(=O)c2cccc(Cl)c2)O1)NCc1ccncn1 | 1.21 |
| O=C(C1=C[C@H](c2ccc(C(F)(F)F)cc2)C[C@H](OCc2ccc(CO)cc2)O1)N1CCN(Cc2ccccc2)CC1 | 0.938 |
| O=C1[C@H]2[C@H](O)CS[C@H]2C(=O)N1c1ccccc1 | 0.873 |
| CC(CO)(CO)NC(=O)NC1CCCCC1 | 1.25 |
| COC[C@@H]1CN(C(=O)c2cscn2)N1C | 1.02 |
| COc1ccccc1O | 0.939 |
| O=C(C[C@H]1C=C[C@@H](NC(=O)CN2CCOCC2)[C@H](CO)O1)NC1CCC1 | 0.951 |
| CCOC(=O)C1=C[C@]2(CC)CCCN3CCc4c(n1c1ccccc41)[C@@H]32 | 1.06 |

| SMILES | relative growth |
| --- | --- |
| CC(=O)c1cc2c(cc1O)OC(C)(C)C=C2 | 1.1 |
| CCC(CCC(C)[C@H]1CCC2C3CC=C4C[C@@H](OC(C)=O)CC[C@]4(C)C3CC[C@@]21C)C(C)C (stereo not given in full) | 1.15 |
| O=C(O)[C@@H]1CCCN1 | 0.929 |
| C#C[C@]1(O)CCC2C3CCC4=CC(=O)CC[C@@H]4C3CC[C@@]21C (stereo not given in full) | 1.07 |
| COC(=O)[C@H]1CCCNC1=O | 1.1 |
| O=C(C[C@H]1CC[C@H]2[C@@H](COC[C@@H](O)CN2C(=O)C2CC2)O1)NCc1ccncc1 | 1.02 |
| COc1ccc(-c2coc3cc(OC)ccc3c2=O)c(O)c1 | 0.972 |
| C=CCn1c(=O)c2c(nc(NCCO)n2C)n(C)c1=O | 0.92 |
| O=C(C[C@H]1C=C[C@H](NC(=O)c2cccc(F)c2)[C@H](CO)O1)NCCN1CCCC1 | 1.1 |
| COc1ccc(S(=O)(=O)N(C)C[C@@H]2Oc3c(NC(=O)Nc4cccc5ccccc45)cccc3C(=O)N([C@@H](C)CO)C[C@@H]2C)cc1 | 0.961 |
| Nc1nc(=O)c2ncn(CCC(CO)CO)c2[nH]1 | 1 |
| CNC(=O)Cn1cc2c(n1)CC[C@H](C)C2 | 0.97 |
| C=CCOC(=O)[C@H]1[C@@H]2C(=O)O[C@@H](c3ccccc3)[C@@H](c3ccccc3)N2[C@@H](c2ccc(OCCOC(=O)[C@@H]3C[C@@H]4C(=O)NCC(=O)N4[C@@H]3c3cccc(OCCO)c3)cc2)[C@]12C(=O)Nc1ccc(I)cc12 | 1.01 |
| COc1ccc(-c2cc(=O)c3c(O)cc(O[C@@H]4O[C@H](CO[C@@H]5O[C@@H](C)[C@H](O)[C@@H](O)[C@H]5O)[C@@H](O)[C@H](O)[C@H]4O)cc3o2)cc1O | 0.964 |
| N=C(NO)c1ccccc1N | 0.909 |
| COc1cccc(S(=O)(=O)N2C[C@@H](O)COC[C@@H]3O[C@H](CC(=O)N4CCOCC4)CC[C@H]32)c1 | 0.903 |
| CC1(C)S[C@@H]2[C@H](NC(=O)[C@H](N)c3ccccc3)C(=O)N2[C@H]1C(=O)[O-].[Na+] | 1.13 |
| CC(=O)OC(C)C[N+](C)(C)C.[Cl-] (stereo not given) | 1.21 |
| Cn1cnc(S(=O)(=O)N[C@H]2C=C[C@@H](CC(=O)Nc3ccccc3)O[C@H]2CO)c1 | 0.981 |
